Structures are written as SMILES.

Protein sequences, listed by entry. Tags and fused reporters are not part of them.
UniProt P36888, whole entry: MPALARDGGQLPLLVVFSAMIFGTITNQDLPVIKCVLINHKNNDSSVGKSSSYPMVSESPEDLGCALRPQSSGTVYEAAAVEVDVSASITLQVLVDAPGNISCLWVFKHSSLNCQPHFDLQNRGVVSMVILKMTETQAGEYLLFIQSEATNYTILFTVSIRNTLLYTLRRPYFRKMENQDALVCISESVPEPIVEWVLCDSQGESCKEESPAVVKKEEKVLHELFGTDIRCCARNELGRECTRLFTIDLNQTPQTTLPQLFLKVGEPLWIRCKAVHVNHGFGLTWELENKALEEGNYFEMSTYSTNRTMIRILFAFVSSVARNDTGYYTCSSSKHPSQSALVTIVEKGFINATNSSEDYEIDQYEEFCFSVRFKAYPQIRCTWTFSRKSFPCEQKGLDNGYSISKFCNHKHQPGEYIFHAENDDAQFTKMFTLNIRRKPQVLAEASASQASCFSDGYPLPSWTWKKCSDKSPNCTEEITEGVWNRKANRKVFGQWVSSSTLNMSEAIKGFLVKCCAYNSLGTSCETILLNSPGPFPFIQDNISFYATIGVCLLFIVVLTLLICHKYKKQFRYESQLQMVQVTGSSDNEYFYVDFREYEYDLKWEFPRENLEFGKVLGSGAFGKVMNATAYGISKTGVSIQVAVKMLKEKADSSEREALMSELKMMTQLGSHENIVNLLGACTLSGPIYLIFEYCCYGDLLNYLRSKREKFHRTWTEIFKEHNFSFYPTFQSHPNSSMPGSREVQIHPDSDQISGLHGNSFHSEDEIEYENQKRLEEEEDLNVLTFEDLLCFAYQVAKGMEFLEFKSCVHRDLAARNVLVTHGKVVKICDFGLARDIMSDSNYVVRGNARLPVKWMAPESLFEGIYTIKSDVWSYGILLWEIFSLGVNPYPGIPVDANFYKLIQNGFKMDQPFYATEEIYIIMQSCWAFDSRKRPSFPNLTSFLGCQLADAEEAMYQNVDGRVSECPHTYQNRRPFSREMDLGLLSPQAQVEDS

For this assay, the target named is Receptor-type tyrosine-protein kinase FLT3 (Homo sapiens, UniProt P36888). Kind of assay: Inhibition Assay: The enzymatic activity of FLT3 was determined using the Z-Lyte assay kit from Invitrogen (Invitrogen cat #PV3191). The assay was performed using the recommended manufacturer's instructions with 117.5 uM ATP and 1 nM FLT3 (Invitrogen cat #PV3182). The % inhibition values were determined according to the manufacturer's directions and IC50 values were obtained using a non-linear 4 point logistic curve fit (XLfit4, IDBS).

For the compound `COc1ccc2c(c1)[C@]1(C[C@H]1c1ccc3c(C#Cc4ccc(CN5CCOCC5)cc4)n[nH]c3c1)C(=O)N2` (relative stereo), the IC50 entry was “in the range around 550 nM”.

Usually IC50 stands for the midpoint of a concentration-inhibition curve.

(Values after ChEMBL document CHEMBL5726813, “Kinase inhibitors and method of treating cancer” (2018).)
